# From ChEMBL document CHEMBL1151064, “Conformationally restricted 1,5-diarylpyrazoles are selective COX-2 inhibitors” (Bioorg Med Chem Lett, 1996)
# Chains of the proteins cited; added tags and fusions are not shown.
# UniProt P23219, whole entry: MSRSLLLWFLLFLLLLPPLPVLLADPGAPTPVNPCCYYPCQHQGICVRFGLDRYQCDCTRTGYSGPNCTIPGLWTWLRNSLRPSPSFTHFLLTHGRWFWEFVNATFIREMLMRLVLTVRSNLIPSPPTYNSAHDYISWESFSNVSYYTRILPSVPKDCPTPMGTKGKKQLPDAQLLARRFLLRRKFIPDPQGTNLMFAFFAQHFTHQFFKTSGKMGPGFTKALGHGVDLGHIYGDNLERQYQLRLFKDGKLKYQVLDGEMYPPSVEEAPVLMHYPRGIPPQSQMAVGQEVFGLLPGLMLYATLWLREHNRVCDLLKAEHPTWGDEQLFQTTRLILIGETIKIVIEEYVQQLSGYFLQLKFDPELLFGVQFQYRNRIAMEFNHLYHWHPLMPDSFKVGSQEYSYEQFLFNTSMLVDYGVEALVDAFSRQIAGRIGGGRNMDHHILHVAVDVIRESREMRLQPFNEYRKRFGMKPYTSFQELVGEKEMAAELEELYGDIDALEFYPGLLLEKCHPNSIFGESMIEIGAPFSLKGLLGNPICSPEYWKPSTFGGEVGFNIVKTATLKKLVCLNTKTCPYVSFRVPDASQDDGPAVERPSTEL
# Target: Prostaglandin G/H synthase 1 (Homo sapiens, UniProt P23219)
# Assay: Relative activity against COX-1/COX-2
compound,measurement,value
NS(=O)(=O)c1ccc(-n2nc(C(F)(F)F)c3c2-c2ccccc2CC3)cc1,Ratio,12.4
